In one experiment the target is HaPARP (Herpetosiphon aurantiacus, UniProt A9B244). Briefly: Thermal stability assay (Sypro Orange melting curves). It counts as binding. The conditions noted are these: compound at 1 mM; Tm in MilliQ water 39,75.
The test system of another experiment is CdPARP. The experiment is described as above. It counts as binding, Clostridioides difficile CD160. The settings on record: compound at 1 mM; Tm in MilliQ water 40,27.

Chains of the proteins cited; added tags and fusions are not shown.
UniProt A9B244, entry or part of it: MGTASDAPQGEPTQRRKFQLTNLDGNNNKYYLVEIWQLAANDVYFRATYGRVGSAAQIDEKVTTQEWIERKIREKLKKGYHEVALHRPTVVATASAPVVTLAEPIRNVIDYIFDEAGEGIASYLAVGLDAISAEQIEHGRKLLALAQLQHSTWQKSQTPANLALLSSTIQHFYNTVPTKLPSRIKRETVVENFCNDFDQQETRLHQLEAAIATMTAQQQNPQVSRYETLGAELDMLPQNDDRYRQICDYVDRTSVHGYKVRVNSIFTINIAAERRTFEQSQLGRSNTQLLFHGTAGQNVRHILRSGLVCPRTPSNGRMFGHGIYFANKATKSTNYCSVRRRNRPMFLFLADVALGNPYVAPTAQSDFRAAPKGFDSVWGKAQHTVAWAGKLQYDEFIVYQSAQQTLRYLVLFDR

Take `NC(=O)c1cccc(N)c1` [3-aminobenzamide]: the “HaPARP Tm (melting temperature)” value on HaPARP is 46,91±0,10 °C. The “CdPARP Tm (melting temperature)” value in the experiment on CdPARP was 41,96±0,06 °C.

These data come from publication PMC5966428, “Comparative inhibitory profile and distribution of bacterial PARPs, using Clostridioides difficile CD160 PARP as a model” (Scientific Reports, 2018).
